Values of other authors as cited in patent publication US20110136106A1, “METHODS FOR DETECTING RICIN AND RELATED COMPOUNDS AND USES THEREOF” (published 2011).

Amino acid sequences for entries named in this document (tags omitted). A change or cut given only in a name is not applied to a line headed by its entry.
UniProt P49435: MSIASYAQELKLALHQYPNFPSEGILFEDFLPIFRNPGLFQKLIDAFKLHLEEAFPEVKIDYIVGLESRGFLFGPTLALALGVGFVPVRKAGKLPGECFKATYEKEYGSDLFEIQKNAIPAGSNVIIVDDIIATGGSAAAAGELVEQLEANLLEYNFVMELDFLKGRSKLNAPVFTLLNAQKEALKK
UniProt P22983: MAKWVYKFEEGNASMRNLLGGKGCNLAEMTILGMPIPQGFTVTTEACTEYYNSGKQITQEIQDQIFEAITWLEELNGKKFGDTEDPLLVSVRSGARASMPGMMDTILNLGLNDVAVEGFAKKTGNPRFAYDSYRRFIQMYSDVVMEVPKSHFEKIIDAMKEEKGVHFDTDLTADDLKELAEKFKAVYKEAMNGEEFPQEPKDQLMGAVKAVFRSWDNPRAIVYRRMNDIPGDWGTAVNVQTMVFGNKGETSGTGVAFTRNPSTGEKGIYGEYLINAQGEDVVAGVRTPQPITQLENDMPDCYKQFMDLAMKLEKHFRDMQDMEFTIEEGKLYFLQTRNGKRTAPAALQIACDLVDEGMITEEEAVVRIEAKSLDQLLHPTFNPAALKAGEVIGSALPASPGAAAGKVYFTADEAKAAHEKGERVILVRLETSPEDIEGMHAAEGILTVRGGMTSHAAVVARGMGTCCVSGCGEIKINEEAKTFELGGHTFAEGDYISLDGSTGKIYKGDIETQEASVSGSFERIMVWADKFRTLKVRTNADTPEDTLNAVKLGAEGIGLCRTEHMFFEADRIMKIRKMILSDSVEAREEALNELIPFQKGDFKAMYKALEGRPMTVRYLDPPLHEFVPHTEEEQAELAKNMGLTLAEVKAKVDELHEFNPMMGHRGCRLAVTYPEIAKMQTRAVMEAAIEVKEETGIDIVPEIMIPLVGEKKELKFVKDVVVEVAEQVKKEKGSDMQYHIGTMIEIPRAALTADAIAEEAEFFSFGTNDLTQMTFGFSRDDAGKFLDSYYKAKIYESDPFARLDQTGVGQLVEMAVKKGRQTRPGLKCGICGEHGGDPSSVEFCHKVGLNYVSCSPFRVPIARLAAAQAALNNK

Legend:
[1] = molecular target: APRTase (Saccharomyces cerevisiae, UniProt P49435); conditions: adenine as APRTase substrate [16]; cited from earlier work
[2] = molecular target: PPDK (Clostridium symbiosum, UniProt P22983); conditions: AMP as PPDK substrate [21]; cited from earlier work

Compound | Km [1] | Km [2]
Nc1ncnc2nc[nH]c12 | 9 µM | 
Nc1ncnc2c1ncn2[C@@H]1O[C@H](COP(=O)(O)O)[C@@H](O)[C@H]1O |  | 9 µM
